## Binding of CDR-mutated scFvs to a peptide of the spike HR2 region

Binding partner: SARS-CoV-2 spike HR2 peptide, sequence PDVDLGDISGINAS.

Parent scFv Ab-14: VH joined to VL by three GGGGS repeats. Changes lie in the light chain CDRs alone.
VH: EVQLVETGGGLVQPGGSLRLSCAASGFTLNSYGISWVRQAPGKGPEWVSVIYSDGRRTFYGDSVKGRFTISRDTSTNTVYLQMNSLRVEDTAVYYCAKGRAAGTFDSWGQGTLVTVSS
VL: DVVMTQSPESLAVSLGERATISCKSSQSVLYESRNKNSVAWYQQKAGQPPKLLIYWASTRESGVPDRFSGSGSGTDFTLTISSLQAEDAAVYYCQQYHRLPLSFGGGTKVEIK

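Phage display of a naive human antibody library on the peptide gave the parent. This is the validation round: designs drawn from the data on random variants, tested in the same kind of assay. Group labels follow the data file (Ctrl: baseline library sampled from a position-specific scoring matrix, with some repeated check sequences; En: ensemble of fine-tuned language models; GP: Gaussian process model; HC: hill climbing; Gen: genetic algorithm; Gibbs: Gibbs sampling; a sequence that several methods proposed may carry one label only). AlphaSeq pools MATa yeast showing the antibodies with MATalpha yeast showing the peptide. Binding brings cells together so that they mate, and sequencing counts the barcode pairs among the diploids. Each replicate has its own calibration line, from reference interactions of the BCL2 family. Each pool was mated in six replicate cultures.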

The parent's light chain CDRs are KSSQSVLYESRNKNSVA, WASTRES, QQYHRLPLS; each variant's own CDRs replace them letter for letter. Affinities are written as log10 Kd with Kd in nM; a lower number is a better binder. A mean of the replicates is given; it leaves out those without a signal. An entry "not detected" has no value in the source: the pair was not observed among the diploids in any replicate. This suggests poor binding but is not conclusive. The range of this assay differs from that of the first round, and the authors advise against merging the two. Of ten entries with the parent sequence, four were seen in most replicates (averages 0.34 to 2.37), three in one and three in none, so single entries are noisy. Empty control strains, which show no peptide, gave a signal in 4% of pairings with all light chain designs; the median was 2.64 and 95% of these signals were weaker than 1.59. No background was subtracted. The authors averaged sequences with at least three values out of six and counted those with two or fewer as poor binders.

| # | CDR-L1 | CDR-L2 | CDR-L3 | group | mean log10 Kd (nM) | replicates with signal |
|---|---|---|---|---|---|---|
| 1 | KFSQSVLYESRNKNNVA | WASTRED | QQYHRLPLS | Ctrl | 1.76 | 6/6 |
| 2 | QLSGPMLSESKKKNNVA | EFSTRGS | QQYHRLPLS | En_HC | 1.09 | 1/6 |
| 3 | TISTSMRYESSLHNAIA | NAQTRES | QQYHRLPLS | En_HC | 0.24 | 6/6 |
| 4 | HISMSMNYLSRNKNSIA | EESTRED | QQYARLPLS | En_HC | 1.88 | 6/6 |
| 5 | SSSQSVLYESRNHNSVA | WASTRES | QQYHRLPLD | Ctrl | not detected | 0/6 |
| 6 | KFSQMDLYESRNKNQVA | DASTRSS | QQYHRLPLS | GP_Gibbs | 0.13 | 6/6 |
| 7 | KISQSVEYGSRNKNSVA | WASTRES | QQYHRLPLS | Ctrl | 0.78 | 6/6 |
| 8 | KSSQSVDMESRNKNSVA | DASTRES | QQYHRLPLS | GP_HC | -0.17 | 6/6 |
| 9 | KFSQSWGYESRNKNSVA | GASTRES | QQYHRLPLS | GP_HC | 0.17 | 6/6 |
| 10 | KSSQSVLPESRNKNSVA | WASTRES | QQYYRLPLS | Ctrl | 1.18 | 4/6 |
| 11 | KASQSVGYGERMSNSVA | EASTRES | QQYHRLPLS | GP_Gibbs | 0.27 | 6/6 |
| 12 | KFSQSVLYESTTSNSVA | NASTRES | QQYHRLPLS | GP_HC | 0.40 | 6/6 |
| 13 | QLLMATMQGTYNRNSVA | HAQTRND | QSYHRLPLA | En_HC | 1.17 | 6/6 |
| 14 | KLSGLMQSSKFAKNNVA | ENNTREA | QQYDRLPLS | En_Gen | 1.78 | 6/6 |
| 15 | KMSESELYESQNSNNVA | HASQRMS | QQYHRLPLS | GP_Gibbs | 0.27 | 6/6 |
| 16 | RLTEHQYMRAYANAAVA | DASTRND | QQYHRLPLE | En_Gibbs | 0.66 | 6/6 |
| 17 | KSSISYLYEERNKNSVA | AASTRES | QQYHRLPLS | GP_HC | 0.06 | 6/6 |
| 18 | KLDQMVVYESRNKNSVA | NASTRES | QQYHRLPLS | GP_Gibbs | -0.29 | 6/6 |
| 19 | NLSWKTEMQNMDSYAVA | QTEQREA | QQYAILPLS | En_Gibbs | 0.75 | 6/6 |
| 20 | KSSQSVTYESRNKNSVC | WASTRES | QQYHRLPLS | Ctrl | not detected | 0/6 |
| 21 | KSSQSVLDESRNKNSVA | WALTRES | QQCHRLPLS | Ctrl | not detected | 0/6 |
| 22 | KLQQSWEYESRNKNNVA | MGSTRED | QQYHRLPLS | GP_Gibbs | 0.02 | 6/6 |
| 23 | KLQWSWLMQSRNKNSVA | HASMRCS | QQYHRLPLS | GP_Gibbs | 1.33 | 6/6 |
| 24 | KISQSVLYQARNQNSVA | SASTRLS | QQYHRLPLS | GP_Gibbs | 0.38 | 6/6 |
| 25 | KSSDSVHYESANKNSVA | WASTRES | SQYHRLPLS | Ctrl | 3.23 | 4/6 |
| 26 | KSSDSVLYEDRNKNSVA | WASTRES | QQYHRLPLS | Ctrl | not detected | 0/6 |
| 27 | NISESMYFQSVNKNNIA | EMSTRER | QHYHRLPLS | En_HC | 0.30 | 6/6 |
| 28 | KSSQSVSMESRNKNSVA | WASVRES | QQYHRPPLS | Ctrl | 2.43 | 3/6 |
| 29 | KLSMSVQYEARMKNSVA | EASTRED | QQYHRLPLS | GP_Gibbs | 0.05 | 6/6 |

Continued, with the values leading:

| # | mean log10 Kd (nM) | replicates with signal | CDR-L1 | CDR-L2 | CDR-L3 | group |
|---|---|---|---|---|---|---|
| 30 | -0.07 | 6/6 | KVSQSELGQERNKMSVA | QASTREK | QQYHRLPLS | GP_Gibbs |
| 31 | 0.24 | 6/6 | KLSQSVGGESRNPNSVA | HASTRER | QQYHRLPLS | GP_Gibbs |
| 32 | 0.60 | 6/6 | KFSQAVLYESRNKNSVA | WASTRES | QQYHRLPLS | Ctrl |
| 33 | 0.51 | 6/6 | KISQMSTIESILHNSVA | QTSTRES | QQYDRLPLS | En_HC |
| 34 | 0.37 | 6/6 | TLGDVTMQLSRNKNSVA | DASTSED | QQYHRLPLS | En_HC |
| 35 | 1.96 | 5/6 | TISSMWFIESKNRNNVA | EMTTREN | QDYDRLPLS | En_HC |
| 36 | -0.46 | 6/6 | KGSQWQLYESRNKNNVA | NASTREM | QQYHRLPLS | GP_Gibbs |
| 37 | not detected | 0/6 | KSSLSVLYESRLKNSVA | GASTRES | QYYHRLPLS | Ctrl |
| 38 | 0.87 | 6/6 | KLSVSTSYLSVNKNSIA | EMSTRES | QQYDRLPLS | En_HC |
| 39 | 1.51 | 6/6 | NLYQSMNFLGRVMNSIA | DANTLPD | QQYHRLPLS | En_HC |
| 40 | 0.33 | 6/6 | KLQQSELYESRNKNSVA | EASTREV | QQYHRLPLS | GP_Gen |
| 41 | 1.90 | 6/6 | NFSMSAAAFVNEDSSIA | DAEISYD | QQYHRLPLV | En_Gibbs |
| 42 | 1.56 | 6/6 | KLGMTLNLEMHKKDNVA | DLVTREN | QQYHRLPLS | En_Gen |
| 43 | not detected | 0/6 | KSSQSVDYESRNENSVA | WASTREA | QWYHRLPLS | Ctrl |
| 44 | -0.18 | 6/6 | KSQQSWLYESRNKNSVA | HASTREQ | QQYHRLPLS | GP_HC |
| 45 | 0.10 | 6/6 | SIYDATGMESRNKNPIA | DVSTRPE | QQYHRLPLS | En_HC |
| 46 | -0.19 | 6/6 | KLPQQVLYESRNKNSVA | GASTRES | QQYHRLPLS | GP_HC |
| 47 | 1.44 | 6/6 | IISGVMLVESKHINSVA | NAETREY | QHYDRLPLS | En_HC |
| 48 | 0.77 | 6/6 | KLVQFMNRGTHHTSNIA | DAALREE | QQYYRLPLA | En_Gen |
| 49 | 0.79 | 6/6 | TMPQVWMYETKNKNNVA | EMSTRED | QQYFRLPLS | En_HC |
| 50 | 0.12 | 6/6 | KLMYSWPGESRNKNSVA | DASTRSS | QQYHRLPLS | GP_Gibbs |
| 51 | 0.21 | 6/6 | KVDQSVLQQSRNINSVA | EASQREE | QQYHRLPLS | GP_Gibbs |
| 52 | 0.41 | 6/6 | KLVQFMNRGTHHTSNIA | DAQNRMD | QQYARLPLF | En_Gen |
| 53 | 2.42 | 6/6 | KSSQSVLYESRNKNSVA | AASTRES | NQYHRLPLS | Ctrl |
| 54 | 0.23 | 6/6 | KSSISDLYESRNENSVA | EASTREQ | QQYHRLPLS | GP_HC |
| 55 | 1.30 | 6/6 | TLSQMSGVESVKHNSVA | ENSTREN | QQYDRLPLA | En_Gen |
| 56 | 1.10 | 6/6 | KIGGVTNGISRMKNSVA | EQSTRED | QQYNRLPLS | En_HC |
| 57 | 0.17 | 6/6 | KFSQTVLYESRNLNSVA | GAATTES | QQYARLPLS | Ctrl |
| 58 | 0.40 | 6/6 | ALSQLMDMTSRNKNSVA | DLSTREN | QQYHRLPLS | En_HC |
| 59 | 0.00 | 6/6 | KLSQSNLYESRNKNSVA | EASTRLS | QQYHRLPLS | GP_Gen |

Picked from the list: the 3 lowest averages where every replicate gave a value.

CDR-L1,CDR-L2,CDR-L3,group,mean log10 Kd (nM),replicates with signal
KGSQWQLYESRNKNNVA,NASTREM,QQYHRLPLS,GP_Gibbs,-0.46,6/6
KLDQMVVYESRNKNSVA,NASTRES,QQYHRLPLS,GP_Gibbs,-0.29,6/6
KLPQQVLYESRNKNSVA,GASTRES,QQYHRLPLS,GP_HC,-0.19,6/6

Source: Li et al. 2023 (doi:10.1038/s41467-023-39022-2), MIT Lincoln Laboratory and A-Alpha Bio; data file from the FLAb repository.